Most compounds without a hit are left out; they make up all but 2.2% or so of the library.
Nrf2 block – Nrf2 pathway inhibition. A549 ARE-Fluc reporter, luciferase luminescence, 18-24 h. Potency, µM (series often up to 46 µM), most hits filed as inhibitors. 2.1% of 360,000 active; note: nearly all actives have a fitted effect of over 60% in size
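Cells were seeded and rested 2 h, then exposed to compounds for 18-24 h. CellTiter-Fluor was read first as a viability measure. BugLite was added 15 min before the final luminescent read of ARE-luciferase activity in A549 cells.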
A549 viability – A549 cytotoxicity, counter-screen for Nrf2 inhibitors. A549 ARE-Fluc cells, CellTiter-Fluor viability, 18-24 h. 0.16% of 390,000 active. Potency, µM (highest dose often 46 µM), most hits filed as inhibitors. AID 504648
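A549 ARE-Fluc cells in 5% FBS OPTI-MEM, 5000 cells/well, rested 2 h then exposed to compounds in concentration-response for 18-24 h at 37 °C. Viability by CellTiter-Fluor fluorescence (Ex 405/Em 525) after 30 min; luciferase luminescence (BugLite, 15 min, RT) read afterwards.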
miR-21 reporter – miR-21 reporter, rising signal. 340,000 tested, under 10 active. Potency, µM (highest dose often 38.3 µM). HeLa miR-21 FLuc reporter, luciferase, 48 h. AID 2288; active = well fitted rising curve with a large enough effect; inconclusive = small, poorly fitted or top-dose-only effect; inactive = no such curve, though single readings can be large or run the other way;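 further: miR-21 action dims this reporter so a rising signal means less miR-21 action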
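Using DMEM plus 10% FBS, HeLa miR-21-FLuc cells are incubated with test compounds (final up to about 40uM) for 48 hours; firefly luciferase signal is then imaged following reagent-mediated lysis.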
PI4K2A inh – PI4K2A (human) kinase inhibition; purified PI4K2A, ADP-Glo luminescence, 1 h; active compounds read low; Q9BTU6; activity change, negative = inhibition, % at 76.9 µM; AID 1346378; 0.13% of 420,000 active; in the data active = activity change below about -50%; inconclusive = mostly about -30% to -49%
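PI4K2A activity was measured by ADP-Glo luminescence: enzyme (4 ug/mL stock) and phosphatidylinositol (1.2 mM stock) in Tris pH 7.5/MgCl2/EGTA/Triton X-100 buffer were reacted with ATP (300 microM stock) for one hour at ambient temperature.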
Nrf2 ARE act – Nrf2 pathway activation | AREc32 ARE-luciferase reporter (MCF7-derived line), luminescence, 24 h | Potency, µM (top dose mostly 46.1 µM), most hits filed as activators | 0.31% of 410,000 active | AID 624171; note: nearly all actives have a fitted effect of over 65% in size
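AREc32 cells carrying an ARE-driven firefly luciferase reporter were seeded at 1000 cells/well in OPTI-MEM with 5% FBS, then exposed to compound for 24 hr at 37 deg C. Luminescence was read with Steady-Glo after 30 min at RT.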
GALK inhibitor – galactokinase (human) inhibition; P51570; Purified GALK, Kinase-Glo residual ATP luminescence; Potency, µM (series often up to 57.5 µM), actives largely listed as inhibitors; 0.007% of 270,000 active; AID 1868
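Compounds were pin-transferred into ATP buffer (35 uM final), then GALK plus galactose (5 nM, 100 uM final) was added. After 1 h at room temperature, Kinase-Glo Plus was added and luminescence read after 10 min.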
Hits are given with their value; [ ] = another dose, or the depositor's remark. Unless noted, calls come from the whole dose curve; as a rule, active = well fitted curve in the direction sought with a large enough effect; inconclusive = small, poorly fitted or top-dose-only effect, or another doubt; inactive = no such curve, though single readings can be large; an effect the other way counts as inactive or inconclusive.

`CCOC(=O)c1ccc(NC(=O)CSc2nc3cccnc3n2C)cc1` gave Nrf2 block 21µM, A549 viability inactive, miR-21 reporter inactive, PI4K2A inh inactive, Nrf2 ARE act inactive and GALK inhibitor inactive.
Screening Cn1c(SCC(=O)Nc2ccccc2)nc2ccccc2c1=O returned Nrf2 block 21µM, A549 viability inactive, miR-21 reporter inactive, PI4K2A inh inactive, Nrf2 ARE act inactive[9.22 µM] and GALK inhibitor inactive.
O=C(CSc1nc2ccccc2c(=O)[nH]1)Nc1ccc([N+](=O)[O-])cc1 was read as Nrf2 block 16µM, A549 viability inactive, PI4K2A inh inactive and Nrf2 ARE act inactive.
`CC1CCCCC1N(C(=O)c1cc(C2CC2)on1)C1CCCCCC1` (stereo not drawn) gave PI4K2A inh inactive.
Screening Cc1cccc(NC(=O)CSc2nc3sc(C)cc3c(=O)n2C)c1 returned Nrf2 block 23µM, A549 viability inactive, PI4K2A inh inactive and Nrf2 ARE act inactive.
Screening COc1ccccc1NC(=O)c1cnc(SCC(=O)NCCc2ccccc2)n(C)c1=O returned Nrf2 block inactive, A549 viability inactive, PI4K2A inh inactive and Nrf2 ARE act 4.5µM.
COC(=O)C[C@H]1CC[C@@H]2[C@@H](COc3ccc(NC(=O)c4ccno4)cc3C(=O)N2C)O1 was read as PI4K2A inh inactive.
C/C(=N\NC(=O)c1ccc(CN(C)S(=O)(=O)c2ccc(C)cc2)cc1)c1ccc(OC(F)F)cc1 was read as Nrf2 block 5.2µM, A549 viability inactive, miR-21 reporter inactive, PI4K2A inh inactive, Nrf2 ARE act inactive and GALK inhibitor inactive.
For CCCCCC(=O)NC1CCCCN(Cc2ccc(Cl)cc2)C1=O (stereo not drawn) the results were PI4K2A inh inactive.
CC(C)Cn1c(-c2ccc(S(=O)(=O)N3CCCC3)cc2)csc1=Nc1ccccc1 was read as Nrf2 block 16µM, A549 viability inactive, miR-21 reporter inconclusive, PI4K2A inh inactive and Nrf2 ARE act inactive.
O=S(=O)(c1ccc(-c2csc(=Nc3ccc(F)cc3)n2CCCCCCO)cc1)N1CCCC1 was read as Nrf2 block 23µM, A549 viability inconclusive, miR-21 reporter inconclusive, PI4K2A inh inactive and Nrf2 ARE act inactive.
CC(=O)c1cccc(N=c2scc(-c3ccc(S(=O)(=O)N4CCOCC4)cc3)n2CCO)c1 was read as Nrf2 block 15µM, A549 viability inactive, miR-21 reporter inactive, PI4K2A inh inactive and Nrf2 ARE act inactive.
C=CCn1c(-c2ccc(S(=O)(=O)N3CCOCC3)cc2)csc1=Nc1ccccc1 was read as Nrf2 block inconclusive, A549 viability inactive, miR-21 reporter inactive, PI4K2A inh inactive, Nrf2 ARE act inactive and GALK inhibitor inactive.
`COc1cc(-c2ccc3ncnc(NCc4nc(C)cs4)c3c2)cc(OC)c1OC` gave Nrf2 block inconclusive and A549 viability inactive.
Screening CN1CCN(C(=S)c2ccc(OCC(=O)Nc3cccc(C(F)(F)F)c3)cc2)CC1 returned Nrf2 block 15µM, A549 viability inactive, miR-21 reporter inactive, PI4K2A inh inactive, Nrf2 ARE act inactive and GALK inhibitor inactive.
`O=C(Nc1ccc2c(c1)OCO2)N1CCN(c2cccc(C(F)(F)F)c2)CC1` gave Nrf2 block 23µM, A549 viability inactive, miR-21 reporter inactive, PI4K2A inh inactive, Nrf2 ARE act inactive and GALK inhibitor inactive.
Cc1cc(N2CCCC2)ccc1NC(=O)COc1cccc(C(F)(F)F)c1 was read as Nrf2 block 5.8µM, A549 viability inactive, miR-21 reporter inactive, PI4K2A inh inactive, Nrf2 ARE act inactive and GALK inhibitor inactive.
COc1ccc(N2CCN(C(=O)Nc3cccc(C(F)(F)F)c3)CC2)cc1 was read as Nrf2 block 21µM, A549 viability inactive, miR-21 reporter inactive, PI4K2A inh inactive, Nrf2 ARE act inactive and GALK inhibitor inactive.
Screening COC(=O)[C@]12C[C@H](CC(=O)NCCc3ccccc3OC)C(=O)N(CCc3ccc(OC)c(OC)c3)C1=C[C@H](C1CCCC1)O[C@@H]2C returned PI4K2A inh inactive.
For COc1ccc2cc3[n+](cc2c1O)CCc1cc2c(cc1-3)OCO2 the results were PI4K2A inh -52 and Nrf2 ARE act inactive.
`Cc1nc2scc(-c3ccccc3)c2c(=O)n1N=C1C=CC(=O)C=C1` gave Nrf2 block inactive, A549 viability inactive, miR-21 reporter inactive, PI4K2A inh inactive, Nrf2 ARE act 10µM and GALK inhibitor inactive.
O=C(CCCN1C(=O)/C(=C/c2ccccc2Cl)SC1=S)N1CCOCC1 was read as Nrf2 block inactive, A549 viability inactive, miR-21 reporter inactive, PI4K2A inh inactive, Nrf2 ARE act inactive and GALK inhibitor inactive.
O=C(CCCN1C(=O)S/C(=C\c2ccccc2)C1=O)NNC(=O)c1ccccc1O was read as Nrf2 block 13µM, A549 viability inactive, miR-21 reporter inconclusive, PI4K2A inh inactive, Nrf2 ARE act inactive and GALK inhibitor inactive.
`O=C(CCCN1C(=O)/C(=C/c2ccccc2Cl)SC1=S)NNC(=O)c1ccccc1` gave Nrf2 block 21µM, A549 viability inactive, miR-21 reporter inconclusive, PI4K2A inh inactive, Nrf2 ARE act inactive and GALK inhibitor inactive.
`CN1CCN(C(=O)CCN2C(=O)/C(=C/c3ccccc3Cl)SC2=S)CC1` gave Nrf2 block inconclusive, A549 viability 21µM, miR-21 reporter inactive, PI4K2A inh inactive, Nrf2 ARE act inconclusive and GALK inhibitor inactive.
For CN1CCN(C(=O)CCN2C(=O)/C(=C\c3ccccc3F)SC2=S)CC1 the results were Nrf2 block inconclusive, A549 viability 23µM, miR-21 reporter inactive, PI4K2A inh inactive, Nrf2 ARE act inactive and GALK inhibitor inactive.
O=C(NCc1nnc(-c2cc3ccccc3[nH]2)o1)c1ccccc1 was read as Nrf2 block inactive and A549 viability inactive.
Screening O=C(c1cccs1)C1CCN(c2ncnc3sccc23)CC1 returned PI4K2A inh inactive.
Screening CC(/C=C1\SC(=O)N(CCCC(=O)O)C1=O)=C\c1ccccc1 returned Nrf2 block 2.3µM, A549 viability inactive, miR-21 reporter inconclusive, PI4K2A inh inactive, Nrf2 ARE act inactive and GALK inhibitor inactive.
CC(=C\c1ccccc1)/C=C1/SC(=S)N(CCCC(=O)O)C1=O was read as Nrf2 block inactive, A549 viability inactive, miR-21 reporter inactive, PI4K2A inh inactive and Nrf2 ARE act inactive.
For CC(C)(C)CC(=O)OCC(=O)[C@@]1(O)CC[C@H]2[C@@H]3CCC4=CC(=O)C=C[C@]4(C)[C@H]3[C@@H](O)C[C@@]21C the results were PI4K2A inh inactive.

Source: PubChem (National Center for Advancing Translational Sciences (NCATS))
